According to the Kinase Knowledgebase extract (Sharma et al. 2016):
pIC50: −log10 of the molar value.

By UniProt entry, the sequences of proteins in these tests, tags left out.
UniProt P00533, whole entry, looked up: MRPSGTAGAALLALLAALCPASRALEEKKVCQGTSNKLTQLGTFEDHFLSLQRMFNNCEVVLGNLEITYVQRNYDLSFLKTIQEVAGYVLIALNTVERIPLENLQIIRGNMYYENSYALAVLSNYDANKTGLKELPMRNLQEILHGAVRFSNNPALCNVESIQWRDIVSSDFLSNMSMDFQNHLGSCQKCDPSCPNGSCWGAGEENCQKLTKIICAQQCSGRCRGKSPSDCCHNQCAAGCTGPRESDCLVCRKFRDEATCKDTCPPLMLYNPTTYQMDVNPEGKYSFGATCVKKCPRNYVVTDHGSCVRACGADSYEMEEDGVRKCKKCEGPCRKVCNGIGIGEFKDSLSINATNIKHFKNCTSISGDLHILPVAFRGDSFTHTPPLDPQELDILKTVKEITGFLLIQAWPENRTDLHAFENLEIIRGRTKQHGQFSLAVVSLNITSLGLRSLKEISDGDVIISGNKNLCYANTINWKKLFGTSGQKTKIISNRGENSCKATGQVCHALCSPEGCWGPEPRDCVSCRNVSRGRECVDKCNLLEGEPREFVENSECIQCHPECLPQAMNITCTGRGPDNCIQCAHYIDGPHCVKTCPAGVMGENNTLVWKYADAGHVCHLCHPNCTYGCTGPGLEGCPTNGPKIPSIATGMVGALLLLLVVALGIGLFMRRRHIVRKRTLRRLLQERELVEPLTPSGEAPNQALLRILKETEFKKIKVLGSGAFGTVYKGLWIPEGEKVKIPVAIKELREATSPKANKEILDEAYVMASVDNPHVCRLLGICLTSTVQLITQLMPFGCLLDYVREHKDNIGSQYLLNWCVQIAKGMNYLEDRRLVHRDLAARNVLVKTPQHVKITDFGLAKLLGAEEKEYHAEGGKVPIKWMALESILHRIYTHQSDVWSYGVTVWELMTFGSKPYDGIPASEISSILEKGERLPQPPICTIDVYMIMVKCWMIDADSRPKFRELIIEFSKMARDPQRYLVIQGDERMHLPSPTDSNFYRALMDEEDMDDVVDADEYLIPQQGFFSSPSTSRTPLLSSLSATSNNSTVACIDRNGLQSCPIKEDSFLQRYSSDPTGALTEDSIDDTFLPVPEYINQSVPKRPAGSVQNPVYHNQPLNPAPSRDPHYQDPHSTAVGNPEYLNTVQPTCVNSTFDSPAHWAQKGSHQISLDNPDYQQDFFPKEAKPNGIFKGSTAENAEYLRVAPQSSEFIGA

Target: EGFR (UniProt P00533)

pIC50: 9.51
Structure (SMILES): COc1cc2ncnc(Nc3cccc(Cl)c3)c2cc1OC
